Screening results: PubChem, Broad Institute
RAD52 inh – RAD52 DNA annealing inhibitors, primary screen, biochemical, FRET, single point, set 2. DNA repair protein RAD52 homolog (Homo sapiens), P43351. recombinant RAD52 DNA annealing, FRET fluorescence. inhibition, % at 18.7 µM. 360,000 compounds, 0.46% hits. AID 651710, 2012;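 active = every replicate showing at least 50% inhibition; inconclusive = mean inhibition at least 50% but not in every replicate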
UUG fidelity – yeast start codon fidelity modulation | S. cerevisiae UUG-firefly luciferase reporter, luminescence/redox ratio | activity score, % at 18.7 µM | 0.13% of 350,000 active | AID 602363;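 active means replicate mean at a twofold rise or more, about +100% in these data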;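 further: firefly luciferase made from a UUG start codon reports start codon fidelity; reporter light over untreated wells divided by growth signal over untreated wells; some hits fall short of that in this replicate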
SIRT5 block – SIRT5 desuccinylase inhibitors, primary screen, biochemical, fluorescence imaging, single point, set 5; 330,000 compounds, 1.1% hits; AID 652115, 2013; NAD-dependent protein deacylase sirtuin-5, mitochondrial (Homo sapiens), Q9NXA8; inhibition, % at 15 µM; Purified SirT5, succinyl-peptide AMC, trypsin-coupled fluorescence; in the data active = inhibition above about 15%; inconclusive = no clear call, values can overlap the other calls
AF4-AF9 inh – inhibitors of AF4 peptide binding to AF9, primary screen, biochemical, AlphaScreen, biotin-AF4 peptide, FLAG-AF9, single point. Protein AF-9 (Homo sapiens), P42568. inhibition, % at 10 µM. 350,000 compounds, 0.47% hits. AID 651704, 2012;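 active = every replicate reaching a set inhibition limit, whatever the replicate mean, cut at about 25% in these data; inconclusive = mean inhibition reaches that limit but some replicates miss it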;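 note: 0% = plate neutral control median and 100% = total signal loss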
E-selectin induc – E-selectin induction in HUVECs, primary screen, imaging, HUVEC, immunofluorescence imaging, single point. normalized: neutral wells 0, TNF-alpha wells 100. activation, % at 7.58 µM. 260,000 compounds, 0.37% hits. AID 686992, 2013;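 active = mean E-selectin-positive cell signal at least 10% of the positive control, reached in at least 60% of replicates, without over 20% cell loss; inconclusive = no rule given, readout overlaps actives, possibly toxicity-flagged; inactive = the rest, including those meeting only one limit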
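Test system: HUVEC; input: 3,000 HUVEC/well; measured by: immunofluorescence imaging; read-out: % PE-positive cells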
RAD54 branch – inhibitors of human RAD54 branch migration, primary screen, biochemical, fluorescence, single point | DNA repair and recombination protein RAD54-like (Homo sapiens), Q92698 | RAD54 Holliday junction branch migration, FAM/BHQ fluorescence | inhibition, % at 10.4 µM | 360,000 compounds, 0.14% hits;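 active = mean normalized replicate activity at least 40 and at least half of replicates scoring 40 or more; inconclusive = only one of the two criteria met; inactive = mean below 40 and under half of replicates reaching 40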;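 note: 0% = median of neutral control wells and 100% = median of positive control wells; inhibitors cause a drop in the FAM fluorescence signal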
* = called active by the depositor; ? = inconclusive; / = no result given. Compounds with a hit are over-represented: about 1.8% of the library has one in this group of screens.

1. CN1CCN(C(=O)C[C@H]2CC[C@H](NC(=O)c3ccc4c(c3)OCO4)[C@H](CO)O2)CC1
2. CN1c2ccc(C#Cc3cccnc3)cc2[C@@H]2[C@@H](CCN2C(=O)C2CCCC2)[C@@H]1CO
3. CN(C)C(=O)c1ccc(-c2ccc3c(c2)[C@H]2[C@H](CCN2C(=O)C2CCOCC2)[C@@H](CO)N3C)cc1
4. CN1c2ccc(C3=CCCCC3)cc2[C@H]2[C@H](CCN2C(=O)C2CCCCC2)[C@H]1CO
5. COc1ccc(-c2ccc3c(c2)[C@@H]2[C@@H](CCN2C(=O)NC2CCCC2)[C@H](CO)N3C)cc1
6. CN1c2ccc(C#Cc3cccnc3)cc2[C@@H]2[C@@H](CCN2C(=O)C2CCC2)[C@H]1CO

| assay / entry | 1 | 2 | 3 | 4 | 5 | 6 |
| --- | --- | --- | --- | --- | --- | --- |
| RAD52 inh | 2 | -36 | -1 | 19 | -1 | -4 |
| UUG fidelity | / | / | 5 | / | / | / |
| SIRT5 block | 3 | 5 | 17* | 6 | -6 | -6 |
| AF4-AF9 inh | 0 | 14 | / | 26* | 36* | 10 |
| E-selectin induc | 0 | 0 | 0 | -1 | 0 | 64* |
| RAD54 branch | -1 | / | 12 | / | / | / |

7. COc1cccc(-c2ccc3c(c2)[C@@H]2[C@@H](CCN2C(=O)NC2CCCC2)[C@@H](CO)N3C)c1
8. COc1ccc(S(=O)(=O)N(C)C[C@H]2Oc3ccc(NS(=O)(=O)c4ccc(F)cc4)cc3C(=O)N([C@@H](C)CO)C[C@@H]2C)cc1
9. COc1ccc(S(=O)(=O)N[C@@H]2CC[C@H](CCn3cc(C(C)C)nn3)O[C@@H]2CO)cc1
10. COc1ccc(-c2ccc3c(c2)[C@H]2[C@H](CCN2C(=O)C2CCCC2)[C@H](CO)N3C)cc1
11. COc1ccccc1NC(=O)N1CC[C@H]2[C@@H]1c1cc(C#Cc3ccc(F)cc3)ccc1N(C)[C@H]2CO
12. COc1ccc(-c2ccc3c(c2)[C@H]2[C@H](CCN2C(=O)C2CC2)[C@@H](CO)N3C)cc1

| assay / entry | 7 | 8 | 9 | 10 | 11 | 12 |
| --- | --- | --- | --- | --- | --- | --- |
| RAD52 inh | -4 | -1 | -8 | 49 | 74* | 13 |
| UUG fidelity | -7 | -4 | -9 | / | -3 | 17 |
| SIRT5 block | 2 | -3 | 0 | 1 | 11 | 0 |
| AF4-AF9 inh | 5 | -2 | 0 | 26* | -5 | ? |
| E-selectin induc | 0 | 0 | 0 | 0 | 0 | 0 |
| RAD54 branch | 12 | -8 | 0 | / | -2 | -9 |

13. COc1ccccc1NC(=O)N1CC[C@@H]2[C@H]1c1cc(-c3ccc(F)cc3)ccc1N(C)[C@H]2CO
14. C[C@@H]1CN([C@@H](C)CO)C(=O)c2cc(NC(=O)C3CC3)ccc2O[C@H]1CN(C)C(=O)NC1CCCCC1
15. COc1ccccc1NC(=O)N[C@@H]1CC[C@@H](CCNS(=O)(=O)c2ccc(C)cc2)O[C@@H]1CO
16. CC(=O)CSc1nnc(C(F)(F)F)n1C
17. CNC(=O)NC(=O)CSc1nnc(C(F)(F)F)n1C
18. CC(NCC(O)COCCC12CC3CC(CC(C3)C1)C2)c1ccccc1 (stereo unspecified)

| assay / entry | 13 | 14 | 15 | 16 | 17 | 18 |
| --- | --- | --- | --- | --- | --- | --- |
| RAD52 inh | 30 | -6 | 4 | -5 | / | 55* |
| UUG fidelity | -7 | -6 | / | / | -16 | -18 |
| SIRT5 block | 2 | 2 | -1 | -2 | / | -3 |
| AF4-AF9 inh | 6 | -4 | -2 | 33* | / | 9 |
| E-selectin induc | -1 | 0 | 1 | / | / | 0 |
| RAD54 branch | 8 | -15 | / | / | 3 | 18 |

19. CCOC(=O)CSC1=C(C#N)C(c2sccc2C)C(C(C)=O)=C(C)N1 (stereo unspecified)
20. CN(C)C(=O)C[C@H]1CC[C@@H]2[C@H](COC[C@@H](O)CN2C(=O)c2ccncc2)O1
21. CN1c2ccccc2N(C)C1(C)c1ccccc1
22. O=C(O)CN1C(=O)/C(=C\c2ccccc2OCc2ccc(Cl)cc2Cl)SC1=S
23. O=C(O)CN1C(=O)/C(=C\c2cccc(OCc3ccc(Cl)cc3Cl)c2)SC1=S
24. C[C@H](CO)N1C[C@H](C)[C@H](CN(C)S(=O)(=O)c2ccc(F)cc2)Oc2ccc(NC(=O)NC3CCCCC3)cc2CC1=O

| assay / entry | 19 | 20 | 21 | 22 | 23 | 24 |
| --- | --- | --- | --- | --- | --- | --- |
| RAD52 inh | -68 | 12 | -88 | -19 | -24 | 3 |
| UUG fidelity | / | 6 | / | -14 | -14 | 17 |
| SIRT5 block | 34* | 16* | -1 | 1 | 15* | -2 |
| AF4-AF9 inh | 3 | -1 | 49* | 4 | -3 | 2 |
| E-selectin induc | / | 0 | 2 | 1 | / | 0 |
| RAD54 branch | / | 3 | / | 0 | 9 | 15 |

Part of the list above in order of formula weight, smallest number first.
21. CN1c2ccccc2N(C)C1(C)c1ccccc1
19. CCOC(=O)CSC1=C(C#N)C(c2sccc2C)C(C(C)=O)=C(C)N1 (stereo unspecified)
24. C[C@H](CO)N1C[C@H](C)[C@H](CN(C)S(=O)(=O)c2ccc(F)cc2)Oc2ccc(NC(=O)NC3CCCCC3)cc2CC1=O

| assay / entry | 21 | 19 | 24 |
| --- | --- | --- | --- |
| RAD52 inh | -88 | -68 | 3 |
| UUG fidelity | / | / | 17 |
| SIRT5 block | -1 | 34* | -2 |
| AF4-AF9 inh | 49* | 3 | 2 |
| E-selectin induc | 2 | / | 0 |
| RAD54 branch | / | / | 15 |

More structures:
25. COc1ccc(S(=O)(=O)N(C)C[C@@H]2Oc3ccc(NC(=O)C4CC4)cc3CC(=O)N([C@H](C)CO)C[C@H]2C)cc1
26. CC1(C)CC(NC(=O)C2CCC(=O)N(C3CC3)C2)CC(C)(C)C1 (stereo unspecified)
27. C/C(=N\Nc1ccc([N+](=O)[O-])cc1[N+](=O)[O-])C(C)C(C)C (stereo unspecified)
28. CC(C)NC(=O)N(C)C[C@H]1OCCCC[C@H](C)Oc2ccc(NS(=O)(=O)c3cn(C)cn3)cc2C(=O)N([C@@H](C)CO)C[C@@H]1C
29. CO[C@@H]1CN(C)C(=O)c2cc(NC(=O)C3CCC3)ccc2OC[C@@H](C)N(Cc2ccncc2)C[C@H]1C
30. OC[C@@H]1[C@@H](c2ccc(C#Cc3cccnc3)cc2)[C@@H]2CN(Cc3ccccc3F)CCCCN12

| assay / entry | 25 | 26 | 27 | 28 | 29 | 30 |
| --- | --- | --- | --- | --- | --- | --- |
| RAD52 inh | 8 | -7 | -16 | 8 | 9 | 25 |
| UUG fidelity | 25 | -9 | / | 7 | -3 | 17 |
| SIRT5 block | 3 | 36* | -2 | 5 | -4 | 3 |
| AF4-AF9 inh | -11 | -1 | 26* | 1 | -3 | 0 |
| E-selectin induc | -12 | 2 | 6 | / | 0 | 0 |
| RAD54 branch | -7 | -4 | / | 2 | 4 | -1 |

31. COc1ccc(C#Cc2ccc([C@@H]3[C@H](CO)N4CCCCN(Cc5ccccc5F)C[C@@H]34)cc2)cc1
32. COc1ccc(C#Cc2ccc([C@H]3[C@H](CO)N4CCCCN(Cc5ccccc5F)C[C@@H]34)cc2)cc1
33. COc1ccc(C#Cc2ccc([C@@H]3[C@@H](CO)N4CCCCN(Cc5ccccc5F)C[C@@H]34)cc2)cc1
34. C[C@H]1CN([C@@H](C)CO)C(=O)c2cc(NS(=O)(=O)c3ccccc3)ccc2O[C@@H]1CN(C)Cc1ccc(-c2ccccc2)cc1
35. COc1cccc(-c2nc(-c3ccccc3)no2)c1
36. CNc1ccccc1C(C)(C)c1cc(-c2cccc(OC)c2)no1
37. COC1=C(Nc2ccc(OC)cc2)C(=O)c2ccccc2C1=O
38. COC1=C(Nc2ccc(O)cc2)C(=O)c2ccccc2C1=O
39. C[C@H](CO)N1C[C@H](C)[C@@H](CN(C)Cc2ccc(C(=O)Nc3ccccc3N)cc2)Oc2ccc(NC(=O)Cc3ccccc3)cc2CC1=O

| assay / entry | 31 | 32 | 33 | 34 | 35 | 36 | 37 | 38 | 39 |
| --- | --- | --- | --- | --- | --- | --- | --- | --- | --- |
| RAD52 inh | 41 | 3 | -104 | -25 | / | -21 | / | -4 | 36 |
| UUG fidelity | -1 | -33 | -5 | 0 | -38 | / | / | / | / |
| SIRT5 block | 1 | 1 | 1 | 11 | / | 8 | / | 3 | 7 |
| AF4-AF9 inh | 31* | 32* | 2 | -1 | / | 5 | / | 50* | -3 |
| E-selectin induc | 0 | 1 | 0 | 0 | / | 46* | 0 | / | -3 |
| RAD54 branch | 18 | 29 | 3 | -8 | 3 | / | / | / | / |
